# Reference: PubChem BioAssay AID2751 (The Scripps Research Institute Molecular Screening Center, 2010)
# The chains behind the UniProt entries cited, without tags or fusion partners.
# UniProt Q4J6C6, whole entry: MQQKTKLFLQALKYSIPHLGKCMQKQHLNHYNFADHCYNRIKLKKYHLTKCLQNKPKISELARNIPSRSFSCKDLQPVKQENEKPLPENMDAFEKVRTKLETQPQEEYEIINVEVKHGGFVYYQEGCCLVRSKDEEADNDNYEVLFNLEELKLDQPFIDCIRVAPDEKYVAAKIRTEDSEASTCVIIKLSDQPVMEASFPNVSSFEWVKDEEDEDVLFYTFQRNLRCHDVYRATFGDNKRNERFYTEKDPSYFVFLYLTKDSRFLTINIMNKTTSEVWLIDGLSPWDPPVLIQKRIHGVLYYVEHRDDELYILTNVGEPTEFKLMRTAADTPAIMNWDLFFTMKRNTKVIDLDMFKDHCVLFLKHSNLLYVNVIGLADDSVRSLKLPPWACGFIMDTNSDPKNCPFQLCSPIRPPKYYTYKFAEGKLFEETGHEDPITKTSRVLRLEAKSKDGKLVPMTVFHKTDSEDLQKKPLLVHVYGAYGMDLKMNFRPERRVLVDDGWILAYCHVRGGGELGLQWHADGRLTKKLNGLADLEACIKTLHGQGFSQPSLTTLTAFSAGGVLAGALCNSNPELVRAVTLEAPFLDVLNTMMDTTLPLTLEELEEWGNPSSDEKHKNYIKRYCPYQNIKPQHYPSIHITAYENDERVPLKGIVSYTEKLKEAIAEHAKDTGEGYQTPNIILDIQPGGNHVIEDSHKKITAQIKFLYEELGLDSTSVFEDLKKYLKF
# The list shows a part of the results, in another mix than the full data. Some salts and complexes are drawn in separate pieces, as the source files them; their charges need not balance. Calls of active or inactive are those of the source. No stated cut-off is given here; in the data, active means inhibition above about 43%; inactive means the rest.
# Target: Prolyl endopeptidase-like (Homo sapiens) (UniProt Q4J6C6)
# Test: PREPL enzyme inhibitors, primary screen, biochemical, fluorescence polarization (AID 2751);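 further: 0% = enzyme with DMSO and 100% = wells lacking enzyme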
# Settings: recombinant PREPL, fluorescence polarization activity-based probe; at 5.96 µM; hits give high values
row,Compound,inhibition
1,CP(=S)(Nn1cnnc1)Oc1ccccc1 (stereo not given),inactive: -6.51%
2,CP(=O)(Nc1ccccc1Br)Oc1ccccc1 (stereo not given),inactive: -2.48%
3,COc1ccccc1OP(C)(=O)Nc1ccccc1 (stereo not given),inactive: -0.81%
4,CP(=O)(Oc1ccccc1)OC(c1ccccc1)C(F)(F)F (stereo not given),inactive: 3.11%
5,Cc1cccc(C)c1OP(C)(=O)Nc1ccc(SC(F)(F)F)cc1 (stereo not given),inactive: -8.07%
6,CP(=O)(Nc1ccc(SC(F)(F)F)cc1)Oc1ccc(Cl)cc1 (stereo not given),inactive: -21.6%
7,Cc1cc(C)cc(OP(C)(=O)Nc2ccc(SC(F)(F)F)cc2)c1 (stereo not given),inactive: -0.73%
8,CCc1ccc(OP(C)(=O)N2CCN(c3ccc([N+](=O)[O-])cc3)CC2)cc1 (stereo not given),inactive: -63.7%
9,CP(=O)(NC(=O)Nc1ccccc1)Oc1ccccc1 (stereo not given),inactive: 0.2%
10,CCOC(=O)c1ccc(NP(C)(=O)Oc2ccc(OC)cc2)cc1 (stereo not given),inactive: -3.27%
11,O=[N+]([O-])c1cc([N+](=O)[O-])c(O)c([N+](=O)[O-])c1.c1ccc(Oc2ccncc2)cc1,inactive: 4.18%
12,CCOP(C)(=S)SCC(=O)NC(C)C(=O)O (stereo not given),inactive: -0.56%
13,CP(=O)(Nc1ccccn1)Oc1ccc(Cl)cc1 (stereo not given),inactive: 23.3%
14,CCN(CC)CCCOC(=O)C(O)(c1ccccc1)c1ccccc1,inactive: 12.1%
15,O=[N+]([O-])c1cc([N+](=O)[O-])c(Nc2cccnc2)c([N+](=O)[O-])c1,inactive: 31.3%
16,O=[N+]([O-])c1ccc2c(c1)C=Nc1ccccc1O2,inactive: 6.09%
17,Cc1cccc(C)c1OP(C)(N)=O (stereo not given),inactive: -4.11%
18,CC(C)(C)c1ccc(OP(C)(=O)Nc2ccc(SC(F)(F)F)cc2)cc1 (stereo not given),inactive: -14.3%
19,Cc1ccc(NP(C)(=O)Oc2ccccc2)c(C)c1 (stereo not given),inactive: -0.51%
20,COc1ccccc1OP(C)(=O)Nc1ccc(C)cc1 (stereo not given),inactive: 2.37%
21,CCOC(=O)c1ccc(NP(C)(=O)Oc2ccccc2)cc1 (stereo not given),inactive: 1.65%
22,Cc1cc(C)cc(OP(C)(N)=O)c1 (stereo not given),inactive: 6.94%
23,COc1ccc(OP(C)(=O)Nc2cccc(F)c2)cc1 (stereo not given),inactive: -7.94%
24,COc1ccccc1OP(C)(=O)Nc1cc(Cl)ccc1C (stereo not given),inactive: -11%
25,O=C(O)c1cccc(Nc2c([N+](=O)[O-])cc([N+](=O)[O-])cc2[N+](=O)[O-])c1,inactive: 2.97%
26,CC1=NCCc2c1[nH]c1ccccc21.O=[N+]([O-])c1cc([N+](=O)[O-])c(O)c([N+](=O)[O-])c1,active: 56.1%
27,COc1ccccc1OP(C)(=O)Nc1cccc(Br)c1 (stereo not given),inactive: -10.9%
28,CCOC(=O)c1ccc(NP(C)(=O)Oc2cc(C)cc(C)c2)cc1 (stereo not given),inactive: 3.95%

row,Compound,inhibition
1,Cc1cc(C)cc(OP(C)(=O)Nc2ccc(C)cc2C)c1 (stereo not given),inactive: -2.92%
2,Cc1ccc(C)c(NP(C)(=O)Oc2ccccc2)c1 (stereo not given),inactive: -5.73%
3,CP(=O)(Nc1cccc(Br)c1)Oc1ccccc1 (stereo not given),inactive: -7.84%
4,Cc1cc(C)cc(OP(C)(=O)Nc2ccccn2)c1 (stereo not given),inactive: 1.42%
5,O=[N+]([O-])c1cc([N+](=O)[O-])c(-n2nnc3ccccc32)c([N+](=O)[O-])c1,inactive: -3.61%
6,O=[N+]([O-])c1cc([N+](=O)[O-])c(-c2cnn(-c3ccccc3)c2)c([N+](=O)[O-])c1,inactive: 14%
7,Cc1nc2ccc3ccccc3c2s1.O=[N+]([O-])c1cc([N+](=O)[O-])c(O)c([N+](=O)[O-])c1,inactive: -9.08%
8,CCOC(=O)C(CC)C1=NC(C)(C)Cc2ccccc21.O=[N+]([O-])c1cc([N+](=O)[O-])c(O)c([N+](=O)[O-])c1 (stereo not given),inactive: -0.86%
9,O=[N+]([O-])c1cc([N+](=O)[O-])c(Nc2nnnn2CCO)c([N+](=O)[O-])c1,inactive: 3.04%
10,CC1=C2N=C(C=C3N=C(C(C)=C4[N-][C@@](C)([C@@H]5N=C1[C@](C)(CCC(=O)NC[C@@H](C)OP(=O)([O-])O[C@H]1[C@@H](O)[C@@H](n6cnc7cc(C)c(C)cc76)O[C@@H]1CO)[C@H]5CC(N)=O)[C@@](C)(CC(N)=O)[C@@H]4CCC(N)=O)[C@@](C)(CC(N)=O)[C@@H]3CCC(N)=O)C(C)(C)[C@@H]2CCC(N)=O.[C-]#N.[Co+3],inactive: 4.09%
11,COc1ccccc1OP(C)(=O)Nc1c(C)cccc1C (stereo not given),inactive: -0.75%
12,CN1CCCCC1COC(=O)C1(O)c2ccccc2CCc2ccccc21 (stereo not given),inactive: -2.92%
13,CP(=O)(Nc1ccc(SC(F)(F)F)cc1)Oc1ccccc1 (stereo not given),inactive: -10.8%
14,CCCOc1ccc(NP(C)(=O)Oc2ccc(Cl)cc2)cc1 (stereo not given),inactive: -10.7%
15,COc1ccc(OP(C)(=O)Nc2cccc(Br)c2)cc1 (stereo not given),inactive: -19.1%
16,CN(C)CCOC(=O)C(O)(c1ccccc1)C1CCCCC1 (stereo not given),inactive: 15.7%
17,COc1ccc(NP(C)(=O)Oc2ccccc2OC)cc1 (stereo not given),inactive: 5.28%
18,O=[N+]([O-])c1cc([N+](=O)[O-])c(NCC2CCS(=O)(=O)C2)c([N+](=O)[O-])c1 (stereo not given),inactive: 2.98%
19,CP(=O)(Nc1ccc(SC(F)(F)F)cc1)Oc1ccc(F)cc1 (stereo not given),inactive: -8.52%
20,CCOP(C)(=S)SCC(=O)NC(C)(CC)C(=O)O (stereo not given),inactive: 12.2%
21,CP(=O)(Nc1ccc2c(c1)OCCO2)Oc1ccccc1 (stereo not given),inactive: -3.5%
22,Cc1ccccc1NP(C)(=O)Nc1ccccc1C,inactive: 10.9%
23,CP(=O)(Nc1ccccc1F)Oc1ccccc1 (stereo not given),inactive: -0.75%
24,CC(C)c1ccc(OP(C)(=O)Nc2ccc(SC(F)(F)F)cc2)cc1 (stereo not given),inactive: -11.9%
25,O=C(OC1CN2CCC1CC2)c1ccc([N+](=O)[O-])cc1 (stereo not given),inactive: 0.21%
26,O=C(OCCN1CCN(CCOCc2ccccc2)CC1)C(O)(c1ccccc1)c1ccccc1,inactive: 17.1%
27,COc1ccc2c(c1O)-c1c(O)c(OC)cc3c1[C@H](C2)[N+](C)(C)CC3.O=[N+]([O-])c1cc([N+](=O)[O-])c([O-])c([N+](=O)[O-])c1[O-],inactive: -0.34%
